Where a name gives a salt, the structure may show the parent alone.

The assay deals with T1, thrombin (Bos taurus, UniProt P00735).
T1 construct: mature alpha-thrombin (light plus heavy chain) cut from prothrombin
Kind of assay: Fibrinogen coagulation time (thrombin-induced clotting of fibrinogen). Type of assay: biochemical. Particulars: pH 7.4, read-out: Concentration required to prolong the coagulation time by a factor of 2. The method, then: The antithrombotic activities of the N^2 -dansyl-L-arginine derivatives of this invention were compared with those of a known antithrombotic agent, (N^2 -(p-tolylsulfonyl)-L-arginine methyl ester). by determining the fibrinogen coagulation time. The measurement of the fibrinogen coagulation time was conducted as follows:
An 0.8 ml aliquot of a fibrinogen solution, which had been prepared by dissolving 150 mg of bovine fibrinogen (Cohn fraction I) supplied by Armour Inc. in 40 ml of a borate saline buffer (pH 7.4), was mixed with 0.1 ml of a borate saline buffer, pH 7.4, (control) or a sample solution in the same buffer, and 0.1 ml of a thrombin solution (5 units/ml) supplied by Mochida Pharmaceutical Ltd. was added to the solutions in an ice bath. Immediately after mixing, the reaction mixture was transferred from the ice bath to a bath thermostated at 25°C. Coagulation times were taken as the period between the time of transference to the 25°C bath and the time of the first appearance of fibrin threads. In the cases where no drug samples were added, the coagulation time was 50-55 seconds.
The term "concentration required to prolong the coagulation time by a factor of two" is the concentration of an active ingredient required to prolong the normal coagulation time 50-55 seconds to 100-110 seconds.
The inhibitors are shown in Table 1 by indicating R in the general formula (I) and the added acid and/or water of crystallization.
For the compound `CN(C)c1cccc2c(S(=O)(=O)N[C@@H](CCCNC(=N)N)C(=O)N3CC4CCC(CC4)C3)cccc12` [Sample 69], the IC (2-fold clotting time) worked out at 10 µM.
With `CCCCCCOC(=O)[C@H](CCCNC(=N)N)NS(=O)(=O)c1cccc2c(N(C)C)cccc12` [Sample 9, N^2 -dansyl-L-arginine n-hexyl ester di(p-toluenesulfonate)], the IC (2-fold clotting time) turned out to be 8 µM.
In the case of `COC(=O)[C@H](CCCNC(=N)N)NS(=O)(=O)c1cccc2c(N(C)C)cccc12` [Sample 1, N^2 -dansyl-L-arginine methyl ester dihydrochloride monohydrate] it was 30 µM; in that of `CN(C)c1cccc2c(S(=O)(=O)N[C@@H](CCCNC(=N)N)C(=O)OCc3ccccc3)cccc12` [Sample 11, N^2 -dansyl-L-arginine benzyl ester di(p-toluenesulfonate)], 2 µM; in that of `CCCCCOC(=O)[C@H](CCCNC(=N)N)NS(=O)(=O)c1cccc2c(N(C)C)cccc12` [Sample 7, N^2 -dansyl-L-arginine n-amyl ester di(p-toluenesulfonate)], 5 µM.
To `CN(C)c1cccc2c(S(=O)(=O)N[C@@H](CCCNC(=N)N)C(=O)OCCCCl)cccc12` [Sample 17, N^2-dansyl-L-arginine 3-chloropropyl ester di(p-toluenesulfonate)] belongs 4 µM.
In the case of `CC(C)CCOC(=O)[C@H](CCCNC(=N)N)NS(=O)(=O)c1cccc2c(N(C)C)cccc12` [Sample 8, N^2 -dansyl-L-arginine isopentyl ester di(p-toluenesulfonate)] it was 10 µM.
